Assay results taken from US20040037843A1 (published 2004).

Key:
HLA-A*0201 [1] = molecular target: HLA-A*0201 (human); experiment: inhibition of 125I probe peptide binding to purified HLA
HLA-A*0206 [2] = molecular target: HLA-A*0206 (human); experiment: competition with 125I probe peptide on purified HLA, gel filtration
HLA-A*6802 [3] = molecular target: HLA-A*6802 (human); experiment: as above
HLA-A*0201 [4] = molecular target: HLA-A*0201 (human); experiment: as above
HLA-A*0201 [5] = molecular target: HLA-A*0201 (human); experiment: competition with 125I-labeled probe peptide for purified HLA, gel filtration
HLA-A*0206 [6] = molecular target: HLA-A*0206 (human); experiment: as above
HLA-A*0202 = HLA-A*0202 (human); experiment: as above
HLA-A*0206 [7] = molecular target: HLA-A*0206 (human); experiment: inhibition of 125I probe peptide binding to purified HLA, gel filtration
HLA-A*0201 [8] = molecular target: HLA-A*0201 (human); experiment: as above
HLA-A*0201 [9] = molecular target: HLA-A*0201 (human)
HLA-A*6802 [10] = molecular target: HLA-A*6802 (human)
HLA-A*0203 = HLA-A*0203 (human)
HLA-A*0206 [11] = molecular target: HLA-A*0206 (human); experiment: competition with 125I-labelled standard peptide for purified HLA
HLA-A*0201 [12] = molecular target: HLA-A*0201 (human); experiment: as above
HLA-A*0206 [13] = molecular target: HLA-A*0206 (human); experiment: as above; remark: listed apart in the source
HLA-A*0201 [14] = molecular target: HLA-A*0201 (human); experiment: as above; remark: listed apart in the source

B1: Peptide 63.0138 FLLFFWLDRSV (PAP.20) (peptide)
peptide: FLLFFWLDRSV
IC50 (HLA-A*0201 [1]): 14 nM

B2: Peptide 60.0213 TVSGLQMAV (PAP.292.V9) (peptide)
peptide: TVSGLQMAV
IC50 (HLA-A*0206 [2]): 195 nM
IC50 (HLA-A*6802 [3]): 5.7 nM
IC50 (HLA-A*0201 [4]): 294 nM

B3: Peptide 1389.20 (peptide)
peptide: VLAGGFFLV
IC50 (HLA-A*0201 [5]): 26 nM
IC50 (HLA-A*0206 [6]): 57 nM

B4: Peptide 1418.30 (peptide)
peptide: ATFDIESKV
IC50 (HLA-A*0202): 27 nM

B5: Peptide 63.0186 (PSA.3.V11) (peptide)
peptide: FLTLSVTWIGV
IC50 (HLA-A*0206 [7]): 65 nM
IC50 (HLA-A*0201 [8]): 6.8 nM

B9: peptide 1389.20, PSM.27.V9 (peptide)
peptide: VLAGGFFLV
IC50 (HLA-A*0206 [11]): 57 nM
IC50 (HLA-A*0201 [12]): 26 nM

Further lines, results first:

IC50 (HLA-A*0201 [9]): 294 nM
B6: peptide 1418.59 (HuK2.8.T2) (peptide)
peptide: ITLSVGCTGAV

IC50 (HLA-A*0201 [9]): 13 nM
IC50 (HLA-A*6802 [10]): 205 nM
B7: peptide 1418.52 (HuK2.170.V10) (peptide)
peptide: SLQCVSLHLV

IC50 (HLA-A*0203): 26 nM
B8: peptide 1418.71, HuK2.191.V11 (peptide)
peptide: KVTEFMLCAGV

IC50 (HLA-A*0206 [13]): 65 nM
IC50 (HLA-A*0201 [14]): 6.8 nM
B10: peptide 1419.27, PSA.3.V11 (peptide)
peptide: FLTLSVTWIGV

Where two headings read alike, the source gives them in different places. One block for each binder: values may come before it.
